pIC50: −log10 of the molar value.
How the values were obtained:
IRAK-4 = IRAK-4 (Homo sapiens (Human), UniProt Q9NWZ3); experiment: In vitro IRAK-4 kinase assay; assay type: biochemical; settings: purified recombinant IRAK-4, 50 uM ATP, 33P peptide phosphorylation
Experimental: Purified recombinant IRAK-4 protein was incubated with 250 uM synthetic peptide ([…]) in 30 ul of kinase buffer including (20 mM MOPS pH7.2, 25 mM beta glycerol phosphate, 5 mM EGTA, 1 mM sodium orthovanadate, 1 mM DTT, 50 uM ATP, 20 mM MgCl2, 10 uCi γ-^33P, 0.1% BSA) for the indicated time. For purified recombinant IRAK-1 protein kinase assay, 50 uM ATP was used. A 25 ul aliquot of the reaction mixture was transferred on to p81 phosphocellulose squares (Upstate Biotechnology, Lake Placid, N.Y.). The assay squares were washed three times with 0.75% phosphoric acid and once with acetone. Enzyme activity was measured by determining the bound radioactivity by liquid scintillation counting.

By UniProt entry, the sequences of proteins in these tests, tags left out.
UniProt Q9NWZ3, whole entry, species assumed: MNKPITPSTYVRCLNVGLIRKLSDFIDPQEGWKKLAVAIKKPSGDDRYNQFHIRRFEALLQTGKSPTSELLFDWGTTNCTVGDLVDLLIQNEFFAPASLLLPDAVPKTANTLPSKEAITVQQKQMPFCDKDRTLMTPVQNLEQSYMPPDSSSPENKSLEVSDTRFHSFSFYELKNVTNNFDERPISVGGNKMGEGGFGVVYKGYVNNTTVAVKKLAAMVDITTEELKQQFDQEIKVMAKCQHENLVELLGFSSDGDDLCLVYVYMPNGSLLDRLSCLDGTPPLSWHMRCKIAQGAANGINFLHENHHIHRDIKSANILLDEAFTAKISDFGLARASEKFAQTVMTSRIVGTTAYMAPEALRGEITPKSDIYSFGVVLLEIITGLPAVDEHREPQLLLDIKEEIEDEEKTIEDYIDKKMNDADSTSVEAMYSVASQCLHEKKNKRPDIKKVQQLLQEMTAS

human full length SYK = human full length SYK (Homo sapiens (Human), UniProt P43405); experiment: In vitro SYK kinase assay; assay type: biochemical; settings: 20 uM ATP, 33P peptide phosphorylation
Experimental: Spleen tyrosine kinase (SYK) is a tyrosine kinase that plays an important role in B cell signal transduction. SYK activity is measured by phosphorylation of a peptide substrate (Biotin-EPEGDYEEVLE) with [gamma-^33P] ATP. The enzyme reaction was conducted at 20 uM ATP with 0.05 uCi [gamma-^33P]ATP (2 uCi for 40 ul assay) and 10 uM peptide substrate at final volume of 40 ul in buffer containing 50 mM Hepes, pH 7.2, 1 mM dithiothreitol, 10 mM MgCl2, 100 uM Na3VO4, 0.1% BSA and 10% DMSO. The enzyme assay was carried out with human full length SYK in the presence or absence of ten compound concentrations. SYK and compound were pre-incubated for 10 minutes. Then, the enzymatic reaction was initiated by addition of ATP and peptide substrate. The reaction mixture was incubated at room temperature for 30 minutes. At the end of incubation, the reaction was terminated by transferring 25 ul of the reaction mixture to 100 ul of 10% streptavidin slurry containing 100 mM EDTA. […] Then the incorporation of ^33P into peptide substrate was quantified on a microplate scintillation counter. Compound inhibition potency on SYK was measured by IC50 value generated from ten concentration inhibition curve fitted into the 3-parameter model: % inhibition=Maximum/(1+(IC50/[Inhibitor])^slope). Data were analyzed on Microsoft Excel for parameter estimation.

pIC50 (IRAK-4): 7.51
pIC50 (human full length SYK): 6.14
Substance: 2-(cis-2-amino-cyclohexylamino)-thieno[3,2-d]pyrimidine-7-carboxylic acid (2,4-dimethoxy-phenyl)-amide [Example 26]

— patent publication US9255110B2 (Hoffmann-La Roche Inc., priority 2010, dated 2016)
